Among all 420,000 compounds or so, about 64,000 (15%) were called active. The source calls these results inconclusive, neither active nor inactive. Calls follow the shape of the dose curve; as a rule, active = well fitted inhibition curve with a large enough effect; inconclusive = small, poorly fitted or top-dose-only effect; inactive = flat fitted curve, though single readings scatter.
Experiment: qHTS for Inhibitors of human tyrosyl-DNA phosphodiesterase 1 (TDP1): qHTS in cells in absence of CPT; also: nearly all actives have a fitted effect of over 55% in size
Conditions: DT40 Tdp1-/- hTDP1 cells, no CPT, ATP luminescence, 48 h; activity change, negative = growth inhibition: at 46.2 µM (top of the series)
% is scaled to controls: 0 for no effect and ±100 for the full control effect; potency is read from the fitted curve at half-maximal effect.

Row | SMILES | Potency | activity change, negative = growth inhibition
1 | COc1ccc(N)c([N+](=O)[O-])c1[N+](=O)[O-] | inconclusive: 25.9 µM | –
2 | Cc1ccc(OP(=O)(Nc2ccccn2)Oc2ccc(C)cc2)cc1 | inconclusive: 29.1 µM | –
3 | CC(=O)NC(SC(=S)N(CC(C)C)CC(C)C)C(Cl)(Cl)Cl (configuration not stated) | inconclusive: 18.4 µM | –
4 | CCC(=O)N(c1ccccc1)C1CCCCC1 | inconclusive: 29.1 µM | –
5 | Nc1c(O)cc([N+](=O)[O-])cc1[N+](=O)[O-] | inconclusive: 20 µM | –
6 | O=P(Nc1nc2ccc(Cl)cc2s1)(c1ccccc1)c1ccccc1 | inconclusive: 23.1 µM | –
7 | O=C(NC(Sc1ccncn1)C(Cl)(Cl)Cl)c1ccccc1 (configuration not stated) | inconclusive: 14.6 µM | –
8 | COc1ccccc1OP(=O)(Nc1ccc(C)cn1)Oc1ccccc1OC | inconclusive: 29.1 µM | –
9 | Clc1ccc(Cl)c(NC2=NCC(CBr)S2)c1 (configuration not stated) | inconclusive: 23.1 µM | –
10 | O=[N+]([O-])c1cc2c(cc1[N+](=O)[O-])OCO2 | inconclusive: 22.4 µM | –
11 | CC1CCN(C(=O)Oc2c(Cl)cc(Cl)c3cccnc23)CC1 | inconclusive: 29.1 µM | –
12 | CCc1nc2c(n1)c1c(non1O)c1c2no[n+]1[O-] | inconclusive: 29.1 µM | –
13 | O=[N+]([O-])c1cccc(NC2=NCC(CBr)S2)c1 (configuration not stated) | inconclusive: 8.2 µM | –
14 | O=P(Nc1ccccn1)(c1cccc2ccccc12)c1cccc2ccccc12 | inconclusive: 20.6 µM | –
15 | Cc1cc(SC(NC(=O)c2ccccc2)C(Cl)(Cl)Cl)nc(C(C)C)n1 (configuration not stated) | inconclusive: 18.4 µM | –
16 | CCCCOc1ccc(C(=O)NCC2(N3CCCCC3)CCCCC2)cc1OC | – | inconclusive: -31.3%

Row | SMILES | Potency | activity change, negative = growth inhibition
17 | CCOC(=O)c1ccc(NC(=O)C(C)(CCl)SC)cc1 (configuration not stated) | inconclusive: 20.6 µM | –
18 | O=[N+]([O-])c1cc(Oc2ccc([N+](=O)[O-])cc2C(F)(F)F)cc([N+](=O)[O-])c1 | inconclusive: 18.4 µM | –
19 | COc1ccc2nc(NP(=O)(c3ccccc3)c3ccccc3)sc2c1 | inconclusive: 1.84 µM | –
20 | O=P1(N(CCCl)CCCl)Nc2ccccc2N1 | inconclusive: 18.4 µM | –
21 | O=C(OC1CN2CCC1CC2)C12CC3CC(CC(C3)C1)C2 (configuration not stated) | – | inconclusive: -30.6%
22 | Cc1c2c(nc3ccccc13)SC(C(Cl)Cl)C2 (configuration not stated) | inconclusive: 29.1 µM | –
23 | CC(C)c1ccc(OP(=O)(Nc2ccccn2)Oc2ccccc2F)cc1 (configuration not stated) | inconclusive: 29.1 µM | –
24 | Cc1ccc2nc3c(c(C)c2c1)CC(C(Cl)Cl)S3 (configuration not stated) | inconclusive: 29.1 µM | –
25 | CO[C@@H]1[C@H](OC(=O)/C=C/C=C/C=C/C=C/C(=O)O)CC[C@]2(CO2)[C@H]1[C@@]1(C)O[C@@H]1CC=C(C)C | inconclusive: 1.88 µM | –
26 | N#CCCN(C(=O)COC(=O)C(O)(c1ccccc1)c1ccccc1)c1ccc(F)cc1 | inconclusive: 6.51 µM | –
27 | CCOP1(=S)c2c(C)nn(CCC#N)c2N=C(c2ccccc2F)N1C (configuration not stated) | inconclusive: 17.8 µM | –
28 | CCOP(=O)(Nc1cccc2ccccc12)OCC | inconclusive: 23.1 µM | –
29 | CC(C)(C)C(=O)NC(Sc1ncccn1)C(Cl)(Cl)Cl (configuration not stated) | inconclusive: 20.6 µM | –
30 | CCOP(=O)(NC(=NC(C)c1ccccc1)NC(C)c1ccccc1)OCC (configuration not stated) | inconclusive: 29.1 µM | –
31 | O=P1(Nc2ccc(Br)cn2)COc2ccccc2OC1 | inconclusive: 0.651 µM | –
32 | Cc1ccc(S(=O)(=O)N(CCCN)CCCc2c(C)nc(N)[nH]c2=O)cc1 | inconclusive: 0.259 µM | –

Source: PubChem BioAssay AID686978 (National Center for Advancing Translational Sciences (NCATS), 2013)
